# Data as given in publication doi:10.1101/488049 (bioRxiv, 2018).
# B1: KIF1C-GFP (recombinant full-length human KIF1C, 6His-KIF1C-GFP) (natural protein, UniProt O43896 1-1103, looked up)
# chain: MAGASVKVAVRVRPFNARETSQDAKCVVSMQGNTTSIINPKQSKDAPKSFTFDYSYWSHTSTEDPQFASQQQVYRDIGEEMLLHAFEGYNVCIFAYGQTGAGKSYTMMGRQEPGQQGIVPQLCEDLFSRVSENQSAQLSYSVEVSYMEIYCERVRDLLNPKSRGSLRVREHPILGPYVQDLSKLAVTSYADIADLMDCGNKARTVAATNMNETSSRSHAVFTIVFTQRCHDQLTGLDSEKVSKISLVDLAGSERADSSGARGMRLKEGANINKSLTTLGKVISALADMQSKKRKSDFIPYRDSVLTWLLKENLGGNSRTAMIAALSPADINYEETLSTLRYADRTKQIRCNAIINEDPNARLIRELQEEVARLRELLMAQGLSASALEGLKTEEGSVRGALPAVSSPPAPVSPSSPTTHNGELEPSFSPNTESQIGPEEAMERLQETEKIIAELNETWEEKLRKTEALRMEREALLAEMGVAVREDGGTVGVFSPKKTPHLVNLNEDPLMSECLLYHIKDGVTRVGQVDMDIKLTGQFIREQHCLFRSIPQPDGEVVVTLEPCEGAETYVNGKLVTEPLVLKSGNRIVMGKNHVFRFNHPEQARLERERGVPPPPGPPSEPVDWNFAQKELLEQQGIDIKLEMEKRLQDLENQYRKEKEEADLLLEQQRLYADSDSGDDSDKRSCEESWRLISSLREQLPPTTVQTIVKRCGLPSSGKRRAPRRVYQIPQRRRLQGKDPRWATMADLKMQAVKEICYEVALADFRHGRAEIEALAALKMRELCRTYGKPDGPGDAWRAVARDVWDTVGEEEGGGAGSGGGSEEGARGAEVEDLRAHIDKLTGILQEVKLQNSSKDRELQALRDRMLRMERVIPLAQDHEDENEEGGEVPWAPPEGSEAAEEAAPSDRMPSARPPSPPLSSWERVSRLMEEDPAFRRGRLRWLKQEQLRLQGLQGSGGRGGGLRRPPARFVPPHDCKLRFPFKSNPQHRESWPGMGSGEAPTPLQPPEEVTPHPATPARRPPSPRRSHHPRRNSLDGGGRSRGAGSAQPEPQHFQPKKHNSYPQPPQPYPAQRPPGPRYPPYTTPPRMRRQRSAPDLKESGAAV
# notes: KIF1C (kinesin-3), human, full length; cDNA from the RNAi-protected plasmid pKIF1C^RIP2GFP; No tag cleavage is described; source: SF9 insect cells (baculovirus), purified (SP Sepharose, Ni-NTA); not shown: GFP, C-terminal, kept
# Molecular target: the molecule itself
# Test: SEC + other: glycerol gradient sedimentation; KIF1C-GFP alone; Superdex 200 in 35 mM sodium phosphate pH 7.5, 1.5 mM MgCl2 at 150 and 500 mM NaCl; 10-40% glycerol gradients at 4°C; apparent mass from Stokes radius and sedimentation coefficient
protein,measurement,value
B1,stoichiometry N,2
